{"sequences": {"note": "The chains behind the UniProt entries cited, without tags or fusion partners. Where a name states a change or a piece, a line headed by the entry shows the natural chain unless it says otherwise.", "UniProt P14740": "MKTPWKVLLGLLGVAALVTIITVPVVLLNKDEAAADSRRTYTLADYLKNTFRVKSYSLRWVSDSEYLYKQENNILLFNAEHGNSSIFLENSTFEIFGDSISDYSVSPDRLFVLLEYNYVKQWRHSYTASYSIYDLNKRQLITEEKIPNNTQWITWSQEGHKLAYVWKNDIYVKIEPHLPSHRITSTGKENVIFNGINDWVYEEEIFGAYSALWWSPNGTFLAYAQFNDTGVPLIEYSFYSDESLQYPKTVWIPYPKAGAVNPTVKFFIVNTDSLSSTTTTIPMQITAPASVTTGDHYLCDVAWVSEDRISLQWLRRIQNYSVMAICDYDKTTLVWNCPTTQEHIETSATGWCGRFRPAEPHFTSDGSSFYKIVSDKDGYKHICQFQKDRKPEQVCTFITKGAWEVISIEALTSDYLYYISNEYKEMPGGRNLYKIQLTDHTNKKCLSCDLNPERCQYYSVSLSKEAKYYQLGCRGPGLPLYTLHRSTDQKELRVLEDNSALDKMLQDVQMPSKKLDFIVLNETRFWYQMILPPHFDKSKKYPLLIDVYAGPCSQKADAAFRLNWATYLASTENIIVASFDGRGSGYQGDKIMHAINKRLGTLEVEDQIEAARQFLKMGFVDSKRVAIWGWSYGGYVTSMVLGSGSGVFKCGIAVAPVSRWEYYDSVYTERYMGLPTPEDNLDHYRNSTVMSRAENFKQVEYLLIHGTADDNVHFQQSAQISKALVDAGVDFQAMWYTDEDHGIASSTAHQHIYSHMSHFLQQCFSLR"}, "source": "patent US7183290B2", "about": "(dated 2007)", "origin": "cited, not measured here", "target": "DPP-IV (Rattus norvegicus, UniProt P14740)", "settings": "obese Zucker rats; Diabetologia 42: 1324–1331"}
{"substance": "NVP-DPP728", "values": [{"measurement": "oral glucose tolerance", "value": "improves oral glucose tolerance"}, {"measurement": "plasma GLP-1 (2-36 amide) concentrations", "value": "increases plasma GLP-1 (2-36 amide) concentrations"}]}
